Chains of the proteins cited; added tags and fusions are not shown.
UniProt P08913, whole entry: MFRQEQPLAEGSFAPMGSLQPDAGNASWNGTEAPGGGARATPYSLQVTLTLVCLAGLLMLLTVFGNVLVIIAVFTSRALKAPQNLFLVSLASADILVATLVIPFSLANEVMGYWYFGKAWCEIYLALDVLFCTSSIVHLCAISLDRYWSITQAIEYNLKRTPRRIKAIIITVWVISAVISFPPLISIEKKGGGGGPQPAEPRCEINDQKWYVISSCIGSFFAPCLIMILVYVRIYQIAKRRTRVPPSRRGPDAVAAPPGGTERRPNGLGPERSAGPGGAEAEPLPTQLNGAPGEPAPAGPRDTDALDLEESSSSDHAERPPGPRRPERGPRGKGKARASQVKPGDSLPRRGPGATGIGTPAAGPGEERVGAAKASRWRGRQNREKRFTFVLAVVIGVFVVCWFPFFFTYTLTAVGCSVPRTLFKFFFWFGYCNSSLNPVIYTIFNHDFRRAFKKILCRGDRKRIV

According to US7169786B2, “Isoxazoline derivatives as anti-depressants” (priority 2001, dated 2007):

Target: T1, hα2A receptor (Homo sapiens, UniProt P08913)
T1 construct: expressed in transfected cells
Experiment: Radioligand binding experiment for hα2A receptor ([3H]-raulwolscine)
Method: The interaction of the compounds of Formula (I) with hα2-receptors and h5-HT-transporters was assessed in in vitro radioligand binding experiments. In general, a low concentration of a radioligand with a high binding affinity for a particular receptor or transporter is incubated with a sample of a tissue preparation enriched in a particular receptor or transporter or with a preparation of cells expressing cloned human receptors in a buffered medium. During the incubation, the radioligand binds to the receptor or transporter. When equilibrium of binding is reached, the receptor bound radioactivity is separated from the non-bound radioactivity, and the receptor- or transporter-bound activity is counted. The interaction of the test compounds with the receptor is assessed in competition binding experiments. Various concentrations of the test compound are added to the incubation mixture containing the receptor- or transporter preparation and the radioligand. The test compound in proportion to its binding affinity and its concentration inhibits binding of the radioligand. The radioligand used for hα2A, hα2B and hα2C receptor binding was [^3H]-raulwolscine and for the h5-HT transporter was [^3H]paroxetine.
CHO cells, stabile transfected with human adrenergic-α2A-, -α2B or α2C receptor cDNA, were cultured in Dulbecco's Modified Eagle's Medium (DMEM)/Nutrient mixture Ham's F12 (ratio 1:1)(Gibco, Gent-Belgium) supplemented with 10% heat inactivated fetal calf serum (Life Technologies, Merelbeke-Belgium) and antibiotics (100 IU/ml penicillin G, 100 μg/ml streptomycin sulphate, 110 μg/ml pyruvic acid and 100 μg/ml L-glutamine). One day before collection, cells were induced with 5 mM sodiumbutyrate. Upon 80–90% of confluence, cells were scraped in phosphate buffered saline without Ca^2+ and Mg^2+ and collected by centrifugation at 1500×g for 10 min. The cells were homogenised in Tris-HCl 50 mM using an Ultraturrax homogenizer and centrifuged for 10 min at 23,500×g. The pellet was washed once by resuspension and rehomogenization and the final pellet was resuspended in Tris-HCl, divided in 1 ml aliquots and stored at −70° C.
Membranes were thawed and re-homogenized in incubation buffer (glycylglycine 25 mM, pH 8.0). […] Filters were rinsed extensively with ice-cold rinsing buffer (Tris-HCl 50 mM pH 7.4). Filter-bound radioactivity was determined by scintillation counting in a Topcount (Packard, Meriden, Conn.) and results were expressed as counts per minute (cpm). Non-specific binding was determined in the presence of 1 μM oxymetazoline for hα2A- and hα2B receptors and 1 μM spiroxatrine for hα2C receptors.
Data from assays in the presence of compound were calculated as a percentage of total binding measured in the absence of test compound. Inhibition curves, plotting percent of total binding versus the log value of the concentration of the test compound, were automatically generated, and sigmoidal inhibition curves were fitted using non-linear regression. The pIC50 values of test compounds were derived from individual curves.

[1] = read-out: hα2A pIC50 (converted)
[2] = hα2A pIC50, membranes of CHO cells expressing human α2A receptor, [3H]raulwolscine 1 nM

SMILES | IC50 [1] | further results
COc1cc2c(cc1OC)C1=NOC(CN3CCN(C/C=C/c4ccccc4)CC3)C1CO2 (single isomer, unassigned) [Compound 1] | 6.31 nM | –
COc1cc2c(cc1OC)C1=NOC(CN3CCN(C/C=C/c4ccccc4)CC3)C1CO2 (single isomer, unassigned) [Compound 8] | 4.57 nM | –
COc1cc2c(cc1OC)C1=NOC(CN3CCN(Cc4ccc5ccccc5c4)CC3)C1CO2 (single isomer, unassigned) [Compound 16] | 5.37 nM | –
COc1cc2c(cc1OC)C1=NOC(CN3CCN(C/C(C)=C/c4ccccc4)CC3)C1CO2 (single isomer, unassigned) [Compound 129] | – | IC50 (membranes of CHO cells expressing human α2A receptor, [3H]raulwolscine 1 nM, read-out: hα2A pIC50 (converted)): 12.3 nM
COc1cc2c(cc1OC)C1=NOC(CN3CCN(C/C=C(\C)c4ccccc4)CC3)C1CO2 (single isomer, unassigned) [Compound 320] | 5.89 nM | –
CCNC(=O)Oc1cc2c(cc1OC)C1=NOC(CN3CCN(C/C(C)=C/c4ccccc4)CC3)C1CO2 (single isomer, unassigned) [Compound 340] | – | IC50 [2]: 1 nM
COc1ccc2c(c1)OCC1C2=NOC1CN1CCN(CC=Cc2ccccc2)CC1 (centres unmarked) [Compound 217] | 1.66 nM | –
CCNC(=O)Oc1ccc2c(c1)OCC1C2=NOC1CN1CCN(CC(C)=Cc2ccccc2)CC1 (centres unmarked) [Compound 238] | – | IC50 [2]: 2.75 nM

Like-named read-outs stand apart in the source and are kept apart here.
